Source: PMC9234962, “Optimization of Peptide Linker-Based Fluorescent Ligands for the Histamine H1 Receptor” (Journal of Medicinal Chemistry, 2022)
Read-outs that look alike come from different tables or passages of the source.

Protein sequences, listed by entry. Tags and fused reporters are not part of them. Lines headed by an entry give the natural chain unless they say otherwise; changes in a name come on top.
UniProt Q9Y5N1: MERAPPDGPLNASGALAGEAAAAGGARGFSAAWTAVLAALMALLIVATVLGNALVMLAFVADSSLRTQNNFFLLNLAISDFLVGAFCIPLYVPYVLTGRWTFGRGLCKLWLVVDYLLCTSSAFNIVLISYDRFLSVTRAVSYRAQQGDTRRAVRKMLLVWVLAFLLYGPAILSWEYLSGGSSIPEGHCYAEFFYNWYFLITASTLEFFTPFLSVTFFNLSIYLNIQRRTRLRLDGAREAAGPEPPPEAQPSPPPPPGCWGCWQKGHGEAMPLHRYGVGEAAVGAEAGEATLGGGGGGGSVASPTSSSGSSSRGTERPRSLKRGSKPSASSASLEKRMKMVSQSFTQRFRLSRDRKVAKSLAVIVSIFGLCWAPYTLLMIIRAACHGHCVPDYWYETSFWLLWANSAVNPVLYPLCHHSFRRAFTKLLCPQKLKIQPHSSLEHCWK

How the values were obtained:
Nluc-H3R [1] = target: T1, Nluc-H3R (Homo sapiens, UniProt Q9Y5N1); parameters: method as in PMID 30249614; conditions: literature value, cited from earlier work
T1 construct: expressed in transfected cells; host or cells: HEK293T, transient transfection; sonicated cell homogenates

Nluc-H3R [2] = target: T1, Nluc-H3R; test: NanoBRET saturation binding assay on Nluc-H3R HEK293T cell homogenates; conditions: highest concentration 1 μM for 31a, 31k
Protocol: HEK293T cells were transiently transfected with 2.5 μg of cDNA encoding Nluc-H3R or Nluc-H4R and 2.5 μg of empty pcDEF3 vector using the polyethylenimine method as described previously in Mocking et al.[23] Two days after transfection, cells were collected in phosphate-buffered saline (PBS) and centrifuged at 1900g for 10 min and the cell pellet was stored at −20°C until the day of experiment. The pellet was resuspended in HBSS buffer, and cells were disrupted using a Branson sonifier 250 (Boom bv., Meppel, the Netherlands) prior to use in a NanoBRET binding assay.
For cell membrane NanoBRET saturation binding experiments, cell homogenates expressing the Nluc-H3R or Nluc-H4R were incubated with the required concentrations of fluorescent ligand in the absence and presence of 10 μM clobenpropit in HBSS for 2 h at 25 °C. For all NanoBRET binding experiments, 10 μM NanoGlo substrate (Promega) was added to each well after the incubation period and fluorescence and luminescence emissions were measured after 5 min.
Total and non-specific saturation binding curves from NanoBRET saturation binding assay were fitted simultaneously using eq 1: [drawing 4] 1 where Bmax is the maximal specific binding, [B] is the concentration of fluorescent ligand in nM, KD is the equilibrium dissociation constant in nM, M is the slope of the non-specific component, and C is the intercept with the Y axis.

## NC(=NCc1ccc(Cl)cc1)SCCCc1cnc[nH]1 [CA200843, reference compound]
Nluc-H3R [1]
  pKD at Nluc-H3R reported in literature: 7.89
Nluc-H3R [1]; read-out: binding affinity at Nluc-H3R reported in literature
  Kd: 0.013 µM
Nluc-H3R [2]
  Kd: 0.044 µM
Nluc-H3R [2]; mean ± SEM, three experiments
  Nluc-H3R pKD: 7.36 ± 0.05
